{
  "sequences": {"note": "By UniProt entry, the sequences of proteins in these tests, tags left out.", "UniProt P35372, whole entry, looked up": "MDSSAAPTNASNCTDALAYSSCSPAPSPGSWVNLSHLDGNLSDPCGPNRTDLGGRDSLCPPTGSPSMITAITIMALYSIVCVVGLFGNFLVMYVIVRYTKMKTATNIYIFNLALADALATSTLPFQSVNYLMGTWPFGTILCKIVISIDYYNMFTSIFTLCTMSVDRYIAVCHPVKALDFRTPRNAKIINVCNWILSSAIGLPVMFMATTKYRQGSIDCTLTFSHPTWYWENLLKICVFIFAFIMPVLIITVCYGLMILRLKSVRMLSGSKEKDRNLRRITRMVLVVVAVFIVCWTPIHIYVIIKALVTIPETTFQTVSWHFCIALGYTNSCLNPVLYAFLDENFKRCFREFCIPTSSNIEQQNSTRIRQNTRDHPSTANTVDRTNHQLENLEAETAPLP", "UniProt P41143, whole entry, looked up": "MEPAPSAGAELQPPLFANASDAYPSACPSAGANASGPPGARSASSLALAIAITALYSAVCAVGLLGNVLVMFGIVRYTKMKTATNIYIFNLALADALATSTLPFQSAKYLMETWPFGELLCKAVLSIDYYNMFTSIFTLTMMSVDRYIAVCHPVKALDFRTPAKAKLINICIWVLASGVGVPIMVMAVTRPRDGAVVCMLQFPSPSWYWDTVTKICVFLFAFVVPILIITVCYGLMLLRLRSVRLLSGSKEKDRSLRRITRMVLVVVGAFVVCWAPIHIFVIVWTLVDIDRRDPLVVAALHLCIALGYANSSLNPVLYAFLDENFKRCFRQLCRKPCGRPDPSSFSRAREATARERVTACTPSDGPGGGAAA"},
  "source": "PubChem BioAssay AID504357",
  "about": "(The Scripps Research Institute Molecular Screening Center, 2011)",
  "note": "The list shows a part of the results, in another mix than the full data. Active and inactive are the calls of the source. No stated cut-off is given here; in the data, active means inhibition above about 22% (passing the limit was not always enough); inactive means the rest.",
  "data": [
    {"target": "Mu-type opioid receptor (Homo sapiens) + Delta-type opioid receptor (Homo sapiens) (UniProt P35372+P41143)", "test": "inverse agonists of MOR-DOR heterodimerization, primary screen, cell-based, luminescence (AID 504357);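 further: 0% = cells with DMSO and 100% = wells without cells with DMSO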", "details": "cell-based MOR-DOR heterodimer luminescence, inverse agonism; at 9.3 µM; stronger effect = higher value", "values": [
      {"smiles": "CCOC(=O)CC[C@H](NC(=O)Cn1cnc2c(OCc3ccccc3)ncnc21)C(=O)OCC", "inhibition": "inactive: 9.25%"},
      {"smiles": "COc1ccc(CNC(=O)[C@H](C)NC(=O)N2CCn3c2nc2ccccc23)cc1", "inhibition": "inactive: 12.2%"},
      {"smiles": "COc1cccc(CNC(=O)[C@H](CC(C)C)NC(=O)N2CCn3c2nc2ccccc23)c1", "inhibition": "inactive: 0.23%"},
      {"smiles": "CCN(CC)CCn1c(NC(=O)c2ccc(Cl)cc2)nc2ccccc21", "inhibition": "inactive: -31.1%"},
      {"smiles": "Cn1c(=O)n(CC(N)=O)c2ccccc21", "inhibition": "inactive: 5.58%"},
      {"smiles": "COc1cc(C2NCCC3(OCCO3)C2(C)C)cc(OC)c1OC", "note": "(stereo unspecified)", "inhibition": "inactive: -3.4%"},
      {"smiles": "CC(=O)Nc1ccc2c(c1)nc1n2CCN(C2CCCCC2)C1", "inhibition": "inactive: 7.1%"},
      {"smiles": "O=C(Cn1c(S(=O)(=O)Cc2ccccc2)nc2ccccc21)N1CCCCC1", "inhibition": "inactive: 0.1%"},
      {"smiles": "COCCN1CCn2c(nc3cc(NC(=O)c4cccs4)ccc32)C1", "inhibition": "inactive: 2.05%"},
      {"smiles": "O=C(Cn1c(-c2ccccn2)nc2ccccc21)N/N=C/c1ccccn1", "inhibition": "inactive: -13%"},
      {"smiles": "O=C(CCCCCNC(=O)N1CCn2c1nc1ccccc12)NCc1ccccc1Cl", "inhibition": "inactive: 14.9%"},
      {"smiles": "O=C(Cn1c(NCCO)nc2ccccc21)NCC1CCCO1", "note": "(stereo unspecified)", "inhibition": "inactive: 4.43%"},
      {"smiles": "Cc1ccc2c(c1)C1CN(C)CCC1N2S(=O)(=O)c1cc(C(F)(F)F)ccc1Cl", "note": "(stereo unspecified)", "inhibition": "inactive: -3.91%"},
      {"smiles": "CCCC(=O)Nc1nnc(/C=C/c2ccc(OC)cc2)s1", "inhibition": "inactive: 10.5%"},
      {"smiles": "CC(C)[C@H](NC(=O)N1CCn2c1nc1ccccc12)C(=O)N[C@@H](C(=O)O)c1ccccc1", "inhibition": "inactive: 13.2%"},
      {"smiles": "O=C(Cn1cnc2c(NCc3ccccc3)ncnc21)NCc1ccccn1", "inhibition": "inactive: 14.1%"},
      {"smiles": "O=C(Cn1cnc2c(NCc3ccccc3)ncnc21)NCC1CCCO1", "note": "(stereo unspecified)", "inhibition": "inactive: 11.8%"},
      {"smiles": "CC1CCC2C(=O)N(c3ccc(NC4CCN(Cc5ccccc5)CC4)c([N+](=O)[O-])c3)C(=O)C2C1", "note": "(stereo unspecified)", "inhibition": "inactive: -4.16%"},
      {"smiles": "c1ccc2c(c1)nc1n2CCN1", "inhibition": "inactive: 12%"},
      {"smiles": "Cc1ccc2c(c1)C1CN(C)CCC1N2C(=S)Nc1ccc(OC(F)F)cc1", "note": "(stereo unspecified)", "inhibition": "inactive: 3.03%"},
      {"smiles": "CC(=O)Nc1nc2ccccc2n1CCN(C)C", "inhibition": "inactive: 9.89%"},
      {"smiles": "COc1ccc(CNC(=O)Cn2cnc3c(OCc4ccccc4)ncnc32)cc1", "inhibition": "inactive: 6.6%"},
      {"smiles": "O=C(Cn1c(C(F)(F)F)nc2ccccc21)Nc1ccccc1N1CCOCC1", "inhibition": "inactive: -4.37%"},
      {"smiles": "Nc1cccc2c([As](=O)(O)O)cccc12", "inhibition": "inactive: -3.11%"},
      {"smiles": "O=C(Cn1c(CO)nc2ccccc21)NCCc1ccccc1", "inhibition": "inactive: 6.81%"},
      {"smiles": "Cc1ccc(NCCc2c([N+](=O)[O-])cc([N+](=O)[O-])cc2[N+](=O)[O-])cc1", "inhibition": "inactive: -36.7%"},
      {"smiles": "Oc1ccc(CC2(N3CCCC3)CCCCC2)cc1", "inhibition": "inactive: -1.82%"},
      {"smiles": "Cc1ccc2c(c1)C1CN(C)CCC1N2C(=O)c1ccccc1NS(=O)(=O)c1cccc(C(F)(F)F)c1", "note": "(stereo unspecified)", "inhibition": "inactive: -6.98%"},
      {"smiles": "O=C(Nc1nc2ccccc2n1CCN1CCOCC1)c1ccccc1", "inhibition": "inactive: 17.7%"},
      {"smiles": "NNC(=O)Cn1cnc2ccccc21", "inhibition": "inactive: -5.87%"},
      {"smiles": "CSCC[C@H](NC(=O)N1CCn2c1nc1ccccc12)C(=O)N1CCCCC1", "inhibition": "inactive: 14%"},
      {"smiles": "C[C@H](NC(=O)N1CCn2c1nc1ccccc12)C(=O)NCc1ccc(F)cc1", "inhibition": "inactive: 10.3%"},
      {"smiles": "Cn1c(=O)n(CCc2ccccc2)c(=O)c2c1nc1n2CCN1Cc1ccco1", "inhibition": "inactive: 17.1%"},
      {"smiles": "CCN(CC)CCCNC(=S)N1CCn2c(nc3ccccc32)C1", "inhibition": "inactive: 13.4%"},
      {"smiles": "O=C(CSc1nc2ccccc2n1CC(=O)N1CCOCC1)N1CCCC1", "inhibition": "inactive: 15.7%"},
      {"smiles": "CCCOP(=S)(Nc1nc(N)cc(=O)[nH]1)OCCC", "inhibition": "inactive: 6.22%"}
    ]}
  ]
}
